Target: T1, low-density lipoprotein receptor (LDLR) (human (endogenous in HepG2), UniProt P01130 22-860)
T1 construct: low-density lipoprotein receptor on human hepatoblastoma cells (HepG2), used as the LDLR carriers; also called LDL receptor; source: endogenous, on HepG2 cells
Experiment: radioligand binding; HepG2 cells as LDLR carriers incubated in DMEM with 3H-LDL and apoE proteins in complex with DMPC as competitors, 4°C, 2 h; cell radioactivity counted
Conditions: one partner purified

percent decrease of 3H-LDL binding: 26%
B1: apoE3-(72-166) (domain or fragment, human, UniProt P02649 90-184, looked up)
chain: KAYKSELEEQLTPVAEETRARLSKELQAAQARLGADMEDVCGRLVQYRGEVQAMLGQSTEELRVRLASHLRKLRKRLLRDADDLQKRLAVYQAGA
notes: 12 kDa; numbers count on: the mature protein of 299 amino acids; source: E. coli, purified

From publication PMC3022805 (Journal of Biomedical Science, 2011)
